# Literature values, collected in US20110217262A1, “Treatment of Ocular Surface Disorders by Increasing Conjunctival Vascular Permeability” (priority 2010, published 2011).
# Tests used:
# [1] = tested on: corneal erosions in a rat model; conditions: cited from earlier work
# [2] = tested on: human corneal and conjunctival cells lines; conditions: cited from earlier work
substance,measurement,setting,value
Albumin: highly stable protein found at a much higher concentration in serum than in tears,healing of corneal erosions,[1],promote healing of corneal erosions
same,apoptosis of corneal and conjunctival cells,[2],inhibit apoptosis
